ChEMBL document CHEMBL6087483, “Discovery of Potent, Highly Selective, and Orally Bioavailable MTA Cooperative PRMT5 Inhibitors with Robust In Vivo Antitumor Activity” (J Med Chem, 2025)

Test: Selectivity ratio of IC50 for inhibition of PRMT5 (unknown origin) to IC50 for inhibition of PRMT5 (unknown origin) in presence of MTA

Ratio IC50: 14.5
Structure (SMILES): CN(C(=O)c1cc2c3c(c(N)nc2cc1F)COC3)[C@@H]1CCN(c2ccc(C#N)cc2)C1
